The series deals with B16-EGFR-SIY melanoma cells. Briefly: B16-EGFR-SIY tumor model, cytotoxic chemotherapy combined with immunoconjugate. The settings on record: oxaliplatin alone 15 mg/kg tail vein day 7.

These results are taken from patent US11883503B2, “Methods and compositions for cancer treatment” (DINGFU BIOTARGET CO., LTD., priority 2017, dated 2024).

Turning to oxaliplatin [reference compound], the “mortality (toxicity)” value was “dead after 14 days”.
